According to patent US6277886A (priority 1996, dated 2001):

Assays:
ICR male mice = experiment: Hypobaric hypoxia model, survival time of mice at 200 mmHg; type: in vivo; conditions: one hour prior to hypoxia, control = 100
From the text: The model used is analogous to the one described by M. Nakanishi et al., Life Sci. 13: 467-476 (1973); and by Y'Oshiro et al., J. Med. Chem. 34: 2014-2023 (1991). A group of 4 ICR male mice each weighing 20-25 g were placed in a 2.5 L glass chamber (A) at atmospheric pressure. Chamber A is connected to a 12 L chamber (B) through a valve which is initially […] closed. The air in chamber B was evacuated to a pressure of 100 mmHg. The valve between the two chambers was opened rapidly, whereupon the pressure in chamber A fell within 14 seconds to 200 mmHg. The survival time of the mice in chamber A was determined to a maximum hypobaric exposure of 15 minutes. Effect of drug pretreatment on survival is calculated as the percent of the survivai time of the drug-treated group as compared to saline-injected or vehicle-injected group. Control groups were tested twice, before and after each experiment and consisted of 12 to 16 mice, 4 per group. Each tested group always consisted of 4 mice in order to ensure a constant residual volume of oxygen in all tests. […] The effect of each dose of the test drug was determined in duplicate, using a total of 8 mice, 4 per group. All drugs were administered i.p. one hour prior to hypoxia. Positive reference drugs were sodium pentobarbital at a dose of 40 mg/kg, or diazepam at a dose of 10 mg.kg, given 0.5 hour prior to hypoxia.

MAO-A/MAO-B = conditions: cited from earlier work
[1] = tested on: axotomized immature rat facial mononeurons; conditions: cited from earlier work

| SMILES | % protection ± SD relative to control (relative survival time) (ICR male mice; 10 mg/kg i.p.) | % protection ± SD relative to control (relative survival time) (ICR male mice; 50 mg/kg i.p.) | % protection ± SD relative to control (relative survival time) (ICR male mice; 100 mg/kg i.p.) | safety factor suggested by in vitro MAO-A/MAO-B ratio (MAO-A/MAO-B; about 100 or more) | safety factor in experimental systems in vitro (MAO-A/MAO-B; in vitro) | activity in increasing the survival of axotomized immature rat facial mononeurons, relative to R(-) enantiomer of deprenyl [1] |
| --- | --- | --- | --- | --- | --- | --- |
| C#CCN(C)[C@H](C)Cc1ccccc1 [R(-)Deprenyl] | 97 ± 70% | 79 ± 23% | 102 ± 75% | ≥ 100 | about 400 | – |
| C#CCN(C)[C@@H](C)Cc1ccccc1 [S(+) deprenyl] | – | – | – | – | – | 2000 times less active |
